## Measured affinities in a library of Ab-91 heavy chain variants

The measurements come from Engelhart et al. 2022 (doi:10.1038/s41597-022-01779-4) through the FLAb antibody collection.

Binding partner: SARS-CoV-2 spike HR2 peptide, sequence PDVDLGDISGINAS.

The variants keep the light chain, the linker and the frameworks of Ab-91 (scFv order VL, the linker GGGGSGGGGSGGGGS, VH).
VL: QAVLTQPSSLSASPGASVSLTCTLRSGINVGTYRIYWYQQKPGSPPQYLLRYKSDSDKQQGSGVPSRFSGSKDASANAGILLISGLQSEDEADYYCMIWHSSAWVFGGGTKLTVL
VH: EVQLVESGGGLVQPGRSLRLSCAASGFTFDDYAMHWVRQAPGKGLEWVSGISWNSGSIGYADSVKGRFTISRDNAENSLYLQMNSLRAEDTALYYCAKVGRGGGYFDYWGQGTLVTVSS

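The starting antibody came from a phage panning campaign against this peptide. The library (AAYL51) carries one to three amino acid substitutions per variant, with no insertions or deletions. The scFvs were displayed on barcoded MATa yeast, the peptide on MATalpha yeast. Pairs that bind mate more often; barcode pairs of the diploids are counted by sequencing. Each replicate has its own calibration line, from reference interactions of the BCL2 family. The assay was run in three technical replicates.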

Sequences are complete VH domains. Affinities are written as log10 Kd with Kd in nM; a lower number is a better binder. Averages over replicates are reported, and they cover detected replicates only. Where no diploid with the target was found in any replicate, the entry reads "no signal": below detection, most likely a poor binder, though not proof of it.

VH,mean log10 Kd (nM),replicates with signal,empty controls
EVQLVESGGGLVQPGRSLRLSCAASGFTFDDYAMHWVRQAPGKGLEWVSGISWNSGSIGYADSVKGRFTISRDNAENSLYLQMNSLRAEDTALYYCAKHGVGHGYFDYWGQGTLVTVSS,4.98,3/3,6/9
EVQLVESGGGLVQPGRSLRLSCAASGFTFDDYAMHWVRQAPGKGLEWVSGISWNSGSIGYADCVKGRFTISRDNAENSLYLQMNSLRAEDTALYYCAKVGRCGGYFDYWGQGTLVTVSS,3.26,2/3,0/9
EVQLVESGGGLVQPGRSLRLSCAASGFTFWDYAMHWVRQAPGKGLEWVSGISWNSGSTGYADSVKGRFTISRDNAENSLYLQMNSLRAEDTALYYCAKVGRGSGYFDYWGQGTLVTVSS,4.24,1/3,0/9
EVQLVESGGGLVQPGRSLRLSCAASGFTFDDYAMHWVRQAPGKGLEWVSGISRNSGSIGYADDVKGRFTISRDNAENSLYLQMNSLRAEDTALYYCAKVGRGGGYFDAWGQGTLVTVSS,1.11,3/3,4/9
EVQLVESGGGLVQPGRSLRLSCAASGFTFDDYAMIWVRQAPGKGLEWVSGISWYSGSIGYADSVKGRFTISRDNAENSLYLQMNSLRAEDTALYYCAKVGRGGGYMDYWGQGTLVTVSS,4.48,1/3,1/9
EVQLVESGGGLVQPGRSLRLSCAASGFTFDDWAMHWVRQAPGKGLEWVSGISWNSGSIGYADSVKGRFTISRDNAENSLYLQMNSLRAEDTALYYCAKAGRGGGNFDYWGQGTLVTVSS,3.82,2/3,4/9
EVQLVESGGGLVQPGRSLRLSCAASGYTFDQYAMPWVRQAPGKGLEWVSGISWNSGSIGYADSVKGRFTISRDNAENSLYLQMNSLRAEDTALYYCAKVGRGGGYFDYWGQGTLVTVSS,6.39,2/3,5/9
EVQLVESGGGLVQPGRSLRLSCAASGFKFDDYAMHWVRQAPGKGLEWVSGISWNSGSIGYADSVKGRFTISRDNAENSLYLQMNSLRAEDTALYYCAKVGRGGGKFDGWGQGTLVTVSS,2.29,3/3,3/9
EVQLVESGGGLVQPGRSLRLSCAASGRTHDDHAMHWVRQAPGKGLEWVSGISWNSGSIGYADSVKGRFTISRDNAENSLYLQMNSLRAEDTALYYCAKVGRGGGYFDYWGQGTLVTVSS,4.39,1/3,1/9
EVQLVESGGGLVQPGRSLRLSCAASMFTFDIYAMHWVRQAPGKGLEWVSGISWNSGSIGYADSVKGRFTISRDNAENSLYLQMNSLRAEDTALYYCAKVGYGGGYFDYWGQGTLVTVSS,no signal,0/3,2/9
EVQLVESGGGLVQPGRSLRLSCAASGFTFDDYAMHWVRQAPGKGLEWVSGISWNSGSIGCADSVKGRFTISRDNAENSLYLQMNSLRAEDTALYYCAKVGRGGPYFDYWGQGTLVTVSS,3.72,1/3,0/9
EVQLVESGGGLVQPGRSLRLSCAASGFKFDDYAMHWVRQAPGKGLEWVSGISWNSGSHGYADSVKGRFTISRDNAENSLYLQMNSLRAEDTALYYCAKVVRGGGYFDYWGQGTLVTVSS,3.80,2/3,3/9
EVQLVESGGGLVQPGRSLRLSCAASGFTFDDHAMHWVRQAPGKGLEWVSGISWNSGSIGSADSVKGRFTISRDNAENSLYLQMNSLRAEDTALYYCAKVGRGGGYFDYWGQGTLVTVSS,4.85,2/3,2/9
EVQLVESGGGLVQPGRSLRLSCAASGFTFDDQAMHWVRQAPGKGLEWVSGISWNSGSIGNADSVKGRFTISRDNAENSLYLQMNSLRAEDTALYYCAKVGRKGGYFDYWGQGTLVTVSS,5.23,1/3,2/9
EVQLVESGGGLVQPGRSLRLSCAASGFTFDDYVMHWVRQAPGKGLEWVSGISWNSGSIGYADSVKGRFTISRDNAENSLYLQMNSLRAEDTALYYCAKVGRGGIYYDYWGQGTLVTVSS,no signal,0/3,1/9
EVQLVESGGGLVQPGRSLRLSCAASGFTFDDYAMDWVRQAPGKGLEWVSGISWNSGSLGYADSVKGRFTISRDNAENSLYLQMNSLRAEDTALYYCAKLGRGGGYFDYWGQGTLVTVSS,5.16,2/3,8/9
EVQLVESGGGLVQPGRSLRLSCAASGFTFDDRAMHWVRQAPGKGLEWVSGRSWNSPSIGYADSVKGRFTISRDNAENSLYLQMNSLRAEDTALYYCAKVGRGGGYFDYWGQGTLVTVSS,no signal,0/3,1/9
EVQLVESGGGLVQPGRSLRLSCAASGTTFTDYAMHWVRQAPGKGLEWVSGISWNSGSIGYADSVKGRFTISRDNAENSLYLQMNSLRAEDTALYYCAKVGRGFGYFDYWGQGTLVTVSS,no signal,0/3,0/9
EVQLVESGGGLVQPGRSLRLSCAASGFTFADYAFHWVRQAPGKGLEWVSGISWNSGSIGYADSVKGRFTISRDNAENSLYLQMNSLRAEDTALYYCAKVGRGGGYLDYWGQGTLVTVSS,4.50,3/3,4/9
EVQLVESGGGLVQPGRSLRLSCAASGFTHDSYAMHWVRQAPGKGLEWVSGISWNSGSIGYADSVKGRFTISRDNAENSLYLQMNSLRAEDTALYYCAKVGRGGGYFDDWGQGTLVTVSS,no signal,0/3,2/9
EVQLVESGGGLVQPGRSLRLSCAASGFTFDDYAMHWVRQAPGKGLEWVSGISWNSGSIMYAWSVKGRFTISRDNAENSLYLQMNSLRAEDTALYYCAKVQRGGGYFDYWGQGTLVTVSS,4.50,1/3,2/9
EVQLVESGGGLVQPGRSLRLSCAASGFTFDDYAMGWVRQAPGKGLEWVSGISWNRGSIGYADSVKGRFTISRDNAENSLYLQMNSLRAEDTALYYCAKVGRGGLYFDYWGQGTLVTVSS,no signal,0/3,2/9
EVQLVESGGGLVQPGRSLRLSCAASGFTFDDYAMHWVRQAPGKGLEWVSTISWNSGSIGYARSVSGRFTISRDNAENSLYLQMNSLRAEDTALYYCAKVGRGGGYFDYWGQGTLVTVSS,4.50,1/3,2/9

A selection of 2 entries from above:

| VH | mean log10 Kd (nM) | replicates with signal | empty controls |
|---|---|---|---|
| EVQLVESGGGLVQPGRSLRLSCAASGFTFDDHAMHWVRQAPGKGLEWVSGISWNSGSIGSADSVKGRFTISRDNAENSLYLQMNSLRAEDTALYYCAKVGRGGGYFDYWGQGTLVTVSS | 4.85 | 2/3 | 2/9 |
| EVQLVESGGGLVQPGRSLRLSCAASGFTFWDYAMHWVRQAPGKGLEWVSGISWNSGSTGYADSVKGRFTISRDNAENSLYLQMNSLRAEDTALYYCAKVGRGSGYFDYWGQGTLVTVSS | 4.24 | 1/3 | 0/9 |

As a blank, each scFv also met three strains without target: over library AAYL51, 21% of these pairings were detected, typically at 4.54 and seldom below 3.26. For each scFv, signals with the empty controls are counted beside the result.